The text below walks through data of patent US10807974B2, “Methylamine derivatives as lysysl oxidase inhibitors for the treatment of cancer” (The Institute of Cancer Research: Royal Cancer Hospital, priority 2016, dated 2020).

Amino acid sequences for entries named in this document (tags omitted). Residues count along the entry.
UniProt Q9Y4K0, 26-774, species assumed: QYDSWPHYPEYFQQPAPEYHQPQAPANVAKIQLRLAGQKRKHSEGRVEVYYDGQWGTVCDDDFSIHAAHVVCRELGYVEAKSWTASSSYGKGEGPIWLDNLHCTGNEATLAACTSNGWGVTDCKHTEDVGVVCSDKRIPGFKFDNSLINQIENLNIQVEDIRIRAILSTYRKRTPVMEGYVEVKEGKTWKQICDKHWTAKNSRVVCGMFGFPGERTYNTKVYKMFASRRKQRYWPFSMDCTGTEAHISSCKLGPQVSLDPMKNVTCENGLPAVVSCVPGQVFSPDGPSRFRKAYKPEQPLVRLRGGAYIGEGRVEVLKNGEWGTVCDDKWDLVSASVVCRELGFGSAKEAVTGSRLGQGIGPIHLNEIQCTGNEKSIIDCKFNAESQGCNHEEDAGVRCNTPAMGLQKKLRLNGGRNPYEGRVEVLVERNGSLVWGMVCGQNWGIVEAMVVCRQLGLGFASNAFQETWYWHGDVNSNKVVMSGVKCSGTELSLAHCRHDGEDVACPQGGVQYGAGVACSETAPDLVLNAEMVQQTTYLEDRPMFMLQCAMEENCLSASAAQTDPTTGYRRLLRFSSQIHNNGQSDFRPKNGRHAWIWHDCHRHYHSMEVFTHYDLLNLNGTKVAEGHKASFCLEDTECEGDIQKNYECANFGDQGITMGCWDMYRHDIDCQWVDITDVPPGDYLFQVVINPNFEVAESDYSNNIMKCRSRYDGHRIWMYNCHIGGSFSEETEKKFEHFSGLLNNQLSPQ

In this assay the target is LOXL2 (Homo sapiens (Human), UniProt Q9Y4K0). The assay is described as follows: LOXL2 enzyme activity assay (ROS-Glo; pre-incubation 20 min Method (a), 60 min Method (b), 20 h Method (c)). It counts as biochemical. The settings on record: read-out: LOXL2 IC50 b) 1 hr.

Each structure is given as a SMILES string. pIC50: −log10 of the molar value. Counter-ions that a name gives are not always drawn.

Take `NCc1ncc(S(=O)(=O)c2cc(C(=O)O)cc(-c3ccccc3)c2)s1`: the pIC50 was 6.62.

`COc1cc(-c2cnn(C)c2)cc(S(=O)(=O)c2cnc(CN)s2)c1`: the pIC50 is 7.09.

Take `CCn1cc(-c2cc(OC)cc(S(=O)(=O)c3cnc(CN)s3)c2)cn1`: the pIC50 was 7.03.

Take `COc1cc(-c2cnn(C3CC3)c2)cc(S(=O)(=O)c2cnc(CN)s2)c1`: the pIC50 was 7.13.

As to `Cc1ccc(-c2cc(S(=O)(=O)c3cnc(CN)s3)ccc2S(C)(=O)=O)cc1`, the pIC50 was 6.59.

Regarding `COc1cc(-c2cn(C)cn2)cc(S(=O)(=O)c2cnc(CN)s2)c1`, the pIC50 is 6.85.

As for `CS(=O)(=O)c1cc(-c2ccc(C(F)(F)F)cc2)cc(S(=O)(=O)c2cnc(CN)s2)c1`, the pIC50 was 6.77.

For the molecule `Cn1cc(-c2cc(C(=O)O)cc(S(=O)(=O)c3cnc(CN)s3)c2)cn1`, the pIC50 is 6.62.

Turning to `CCc1cc(-c2cnn(C)c2)cc(S(=O)(=O)c2csc(CN)n2)c1`, the negative logarithm of the IC50 (pIC50) was 6.49.

`Cn1cc(-c2cc(F)cc(S(=O)(=O)c3cnc(CN)s3)c2)cn1` [Example 131, (5-(3-Fluoro-5-(1-methyl-1H-pyrazol-4-yl)phenyl)sulfonyl)thiazol-2-yl)methanamine Trihydrochloride]: the pIC50 is 7.07.

Take `Cn1cc(-c2cc(C(F)(F)F)cc(S(=O)(=O)c3cnc(CN)s3)c2)cn1` [Example 143]: the pIC50 was 6.51.
